Experiments:
JIMT-1 cells = assay: JIMT-1 cell proliferation assay (CellTiter 96 AQueous); assay type: cell-based; details: 72 hours
Experimental: (§1) JIMT-1 and HCC1954 cells were seeded into 96-well plates (Costar), in Dulbecco's Modification of Eagle's Medium (DMEM, Invitrogen) containing 10% Fetal Bovine Serum (heat inactivated FBS, Hyclone), 1% Penicillin-streptomycin (Hyclone). 18 hours after seeding, cells were treated with the compounds for 72 hours. Triplicate wells were used for each compound concentration. The control wells were treated with 0.2% DMSO media. The cultures were incubated at 37° C., 5% CO2 and the quantity of proliferating cells was determined using the “CellTiter 96 AQueous Non-Radioactive Cell Proliferation Assay kit” (Promega). Following incubation with the substrate solution, the plate was read using Infinite M1000 plate reader (Tecan). IC50 values were calculated based on the GraphPad Prism software analysis. Percentage inhibition of cell proliferation was calculated as [1-(treated cells/control cells)×100].

HCC1954 cells = assay: HCC1954 cell proliferation assay (CellTiter 96 AQueous); assay type: cell-based; details: 72 hours
Experimental: as §1

JIMT-1 tumors = assay type: in vivo; details: trastuzumab 20 mg/kg i.p. biwk×5 monotherapy, SCID mice
Source text: Female severe combined immunodeficient mice (Fox Chase SCID®, C.B-17/Icr-Prkdc^scid, Charles River Laboratories) were ten weeks old, with a body weight range of 17.6 to 20.8 grams on Day 1 of the study. Treatment began on Day 1 in four groups of mice (n=12) with upstaged subcutaneous JIMT-1 tumors (196-405 mm^3). […] The experiment included a vehicle-treated control group and a trastuzumab monotherapy group. During the study, the EXEL-7647 dosing schedule was modified to once daily on Days 1-19, 28, 29, 32-36, and 39-42, due to toxicity. Tumors were measured twice per week until the study was ended on Day 42. Treatment outcome was determined from percent tumor growth inhibition (% TGI), which evaluated the percent differences in median tumor volumes (MTVs) between treated and control mice at the end of daily dosing (Day 18) and at the end of the study (Day 42), with differences between groups deemed statistically significant at P<0.05 using the Mann-Whitney U-test. […]. Mice were also monitored for complete regression (CR) and partial regression (PR) responses, and for the frequency of 30% tumor volume (TV) regression from Day 1. The 30% TV regressions were deemed statistically significant at P<0.05 using the chi-square test. Treatment tolerability was assessed by body weight measurements and frequent observation for clinical signs of treatment related side effects.

In the case of “Trastuzumab: recombinant humanized monoclonal antibody that binds to the extracellular segment of the ErbB2 receptor”, the “rate of cellular proliferation (in words)” value (JIMT-1 cells; JIMT-1 cells, increasing concentrations) is reported as “no impact”, the “Inhibition of JIMT-1 cell proliferation (% inhibition)” value (JIMT-1 cells; Trastuzumab 0.2 μg/ml alone) is reported as 1.9% and the “Inhibition of JIMT-1 cell proliferation (% inhibition)” value (JIMT-1 cells; Trastuzumab 0.5 μg/ml alone) is reported as 3.4%. For the same substance, the “Inhibition of JIMT-1 cell proliferation (% inhibition)” value (JIMT-1 cells; Trastuzumab 1.0 μg/ml alone) was 4.4%, the “Inhibition of JIMT-1 cell proliferation (% inhibition)” value (JIMT-1 cells; Trastuzumab 2.0 μg/ml alone) was −1.8% and the “Inhibition of JIMT-1 cell proliferation (% inhibition)” value (JIMT-1 cells; Trastuzumab 5.0 μg/ml alone) was −6.0%. For the same substance, the “rate of cellular proliferation (in words)” value (HCC1954 cells; HCC1954 cells, increasing concentrations) was “no impact”, the “Inhibition of HCC1954 cell proliferation (% inhibition)” value (HCC1954 cells; Trastuzumab 0.2 μg/ml alone) was −6.9% and the “Inhibition of HCC1954 cell proliferation (% inhibition)” value (HCC1954 cells; Trastuzumab 0.5 μg/ml alone) was −6.4%. The “Inhibition of HCC1954 cell proliferation (% inhibition)” value (HCC1954 cells; Trastuzumab 1.0 μg/ml alone) was −6.5%, the “Inhibition of HCC1954 cell proliferation (% inhibition)” value (HCC1954 cells; Trastuzumab 2.0 μg/ml alone) was −15.5% and the “Inhibition of HCC1954 cell proliferation (% inhibition)” value (HCC1954 cells; Trastuzumab 5.0 μg/ml alone) was −13.9%. The JIMT-1 tumor growth (JIMT-1 tumors) was “completely resistant”.

— patent publication US20150010545A1 (KADMON CORPORATION, LLC, priority 2011, published 2015)
